{
  "source": "paper PMC10811212",
  "about": "(Frontiers in Oncology, 2024)",
  "test_system": "GA1224 gastric adenocarcinoma PDTX (FGFR2 amplification)",
  "settings": "all treatment groups",
  "data": [
    {"smiles": "COc1cc(CCc2cc(-c3nc4ccc(N5CCN(C)CC5)cc4[nH]3)n[nH]2)cc(OC)c1", "note": "[CPL304110, 2-{5-[2-(3,5-Methoxyphenyl)ethyl]-1H-pyrazol-3-yl}-5-(4-methylpiperazine-1-yl)-1H-benzo[d]imidazole]", "values": [
      {"measurement": "tumor regrowth during 7-day treatment-free period, GA1224", "value": "no tumor regrowth was observed"}
    ]}
  ]
}
